Antibody variant affinities, Ab-14 heavy chain, assay 1

Binding partner: SARS-CoV-2 spike HR2 peptide, sequence PDVDLGDISGINAS.

Each scFv is VH, the linker GGGGSGGGGSGGGGS, VL, as in the parent Ab-14, and differs from it in the CDRs of the heavy chain only.
VH: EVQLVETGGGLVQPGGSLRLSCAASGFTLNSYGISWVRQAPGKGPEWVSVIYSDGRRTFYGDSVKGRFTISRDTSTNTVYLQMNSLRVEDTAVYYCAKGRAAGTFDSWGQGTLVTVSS
VL: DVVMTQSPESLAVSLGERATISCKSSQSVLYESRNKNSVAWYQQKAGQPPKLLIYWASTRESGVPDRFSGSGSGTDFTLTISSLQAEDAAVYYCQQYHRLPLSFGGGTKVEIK

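The parent was found by panning a naive human phage display library on the peptide. AAYL49 was designed without a model: most single CDR substitutions and a random sample of double and triple ones. The assay is AlphaSeq: two haploid yeast populations carry antibody and antigen on their surface. Binding brings cells together so that they mate, and sequencing counts the barcode pairs among the diploids. A regression on co-assayed BCL2-family reference pairs converts the normalised counts of each replicate to an apparent Kd. The assay was run in three technical replicates.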

Variants are written as CDR1, CDR2 and CDR3 of the heavy chain (limits as in the source). Parent: GFTLNSYGIS, VIYSDGRRTFYGDSVK, GRAAGTFDS.
Affinities are written as log10 Kd with Kd in nM; a lower number is a better binder.
The mean shown is taken over the replicates in which the pair was detected.
"ND" means that the variant was in the library but no mating with the target was seen in that replicate; the authors take this as a sign of poor binding, and no number exists.
Three control strains display no target. For library AAYL49, 15% of the pairings with them gave a signal, with a median of 4.06 and one signal in twenty below 2.83, so weak values seen in few replicates may be background. Also given: how often the same scFv was detected with the empty control strains, with their mean in brackets.
For reference, the parent read 0.65 as the reference entry and 4.11 (one replicate of three) as a member of this library.

CDR-H1 | CDR-H2 | CDR-H3 | log10 Kd (nM) by replicate | mean, log10 nM | control signals
GFTLNSYGWS | VDYSDGRITFYGDSVK | GRAAGTFDS | ND / ND / ND | ND | 1/9 (3.66)
GFTLNSYGIS | NIYSDGREIFYGDSVK | GRAAGTFDS | ND / ND / ND | ND | 3/9 (3.63)
GFTLNSYGIS | VIYSDGRRTFYGDSVE | GRADKTFDS | 2.80 / 2.78 / 2.98 | 2.85 | 5/9 (4.78)
GFTLNSYGIS | VIYSDGRYMFYGDSVK | GRCAGTFDS | ND / ND / ND | ND | 0/9
GFTLDSYGIS | VIYSKGRSTFYGDSVK | GRAAGTFDS | ND / 3.24 / ND | 3.24 | 1/9 (3.17)
GFTLNSYGIH | NIYSDGRRTFYGDSVK | GYAAGTFDS | ND / ND / ND | ND | 1/9 (3.54)
GFTLNSYGIS | VIYSDGRGTFYGDSVK | GRAARTFDS | 4.41 / 4.61 / ND | 4.51 | 3/9 (4.25)
GFTLNSHGIS | VIYSDGRRTFYGDSVK | GRAANVFDS | ND / ND / ND | ND | 0/9
GFTLNSYGIS | VRYSVGRRTFYGDSKK | GRAAGTFDS | ND / ND / ND | ND | 0/9
GFTLGSYGIS | VIYSDGRRTFRGPSVK | GRAAGTFDS | ND / 4.08 / ND | 4.08 | 2/9 (3.61)
RFTLNSYNIS | MIYSDGRRTFYGDSVK | GRAAGTFDS | ND / ND / 3.58 | 3.58 | 1/9 (3.71)
GFTLNSYGCM | VIYSDGRRTFYGDSVK | GRAAGIFDS | ND / ND / ND | ND | 1/9 (3.18)
GFTLNRYGIS | VYYSDGRATFYGDSVK | GRAAGTFDS | ND / ND / ND | ND | 0/9
GFTLNSYGIS | VIYSDGWRTFYGDEVK | GRAAGTFIS | 2.02 / 2.05 / 2.34 | 2.13 | 2/9 (4.26)
GFTLNSYGIS | VIYSDGRATFYGVSVK | GRAAGTADS | 4.84 / 3.37 / ND | 4.11 | 2/9 (4.02)
GFTLNSYGHS | VIYSDGRRTFYGVSVK | GRAAGTFDS | ND / ND / 3.31 | 3.31 | 0/9
GFTINSYGIS | VIYSDGRRTFYGDGVK | GRASGTFDS | 0.94 / 1.42 / 1.51 | 1.29 | 0/9
GFTLNYYGIS | VIYSDGRRTFSGDSVK | GRAFGTFDS | ND / ND / ND | ND | 3/9 (4.40)
GFTLISYGIS | WIYSDGRRTFYGDSVK | GRAAGTFDS | ND / ND / 4.05 | 4.05 | 1/9 (3.54)
GSTLNSYEIS | VIYSDGRRTFYGDSVK | GRAAGTGDS | ND / 2.62 / ND | 2.62 | 0/9
GFTLNSYGIS | VIYMDGPRTFYWDSVK | GRAAGTFDS | 5.88 / 4.65 / ND | 5.26 | 3/9 (4.00)
GFTLNSYGIS | VIYIDGRRTFYDDSVK | GRAAGTGDS | 3.97 / ND / ND | 3.97 | 0/9
GFTLNSYGIS | VYQSDGRRTFYGDSVK | MRAAGTFDS | ND / ND / ND | ND | 1/9 (3.73)
GFTLNSFSIS | VIYSDGRRTFYGDSVK | GQAAGTFDS | ND / ND / ND | ND | 1/9 (3.76)
GFALNSYGIS | VIYSDHRRTFYGDSVK | GRAAGTFWS | ND / ND / ND | ND | 2/9 (3.12)
GFTLNSYGIS | VIYSDGRHTFYGDSFK | GRAAVTFDS | ND / 2.06 / 3.93 | 2.99 | 0/9
QFTLNDYGIS | VIYSDGRRTFYGDSVK | GRTAGTFDS | 0.37 / 0.63 / 0.39 | 0.47 | 0/9
GFTLNSYGIS | VIYSDGRRTFYGDSVK | GRAPGTSDL | ND / ND / 5.19 | 5.19 | 2/9 (4.22)
GFTLNSYGIY | VIYSDGRMTFYGDSVK | GRAANTFDS | ND / ND / ND | ND | 1/9 (4.63)
PFTLNSYGIS | VIYSDGRRTFYGDSVK | PRAAGTFDS | ND / ND / ND | ND | 0/9

From the list, the first 2 with no signal in any replicate:

{"CDR-H1": "GFTLNSYGWS", "CDR-H2": "VDYSDGRITFYGDSVK", "CDR-H3": "GRAAGTFDS", "log10 Kd (nM) by replicate": "ND / ND / ND", "mean, log10 nM": "ND", "control signals": "1/9 (3.66)"}
{"CDR-H1": "GFTLNSYGIS", "CDR-H2": "NIYSDGREIFYGDSVK", "CDR-H3": "GRAAGTFDS", "log10 Kd (nM) by replicate": "ND / ND / ND", "mean, log10 nM": "ND", "control signals": "3/9 (3.63)"}

From the AlphaSeq antibody data of Engelhart et al. 2022 (doi:10.1038/s41597-022-01779-4), copy in the FLAb collection.